Results as given in US20160024414A1, “IONIC LIQUIDS AS L[…] BASE STOCKS, COBASE STOCKS AND MULTI[…]” ([…] AND ENGINEERING COMPANY, priority 2012, published 2016).

Conditions: solvent: mPAO150

## dihexadecyldimethylammonium bis(2-ethylhexyl) phosphate [Example 8]
  solubility in mPAO150 (in words): soluble
